These results are taken from patent US11963980B2, “Activated CD26-high immune cells and CD26-negative immune cells and uses thereof” (MUSC FOUNDATION FOR RESEARCH DEVELOPMENT, priority 2016, dated 2024).

Structures are written as SMILES. Entries after “also recorded” stand apart in the source; their conditions may differ.

This data set deals with CD4^+CD26^high cells. The conditions noted are these: 2.5 nM Alogliptin, N=4.

Take `Cn1c(=O)cc(N2CCC[C@@H](N)C2)n(Cc2ccccc2C#N)c1=O` [Alogliptin]: the “Granzyme B (cytotoxin) secretion of CD4+CD26high cells” value is “less Granzyme B and less”; the “function / cytokine secretion of CD4+CD26high cells” value is on record as “reduced; also recorded: less cytokines”.
